{"sequences": {"note": "The chains behind the UniProt entries cited, without tags or fusion partners.", "UniProt P27487, whole entry": "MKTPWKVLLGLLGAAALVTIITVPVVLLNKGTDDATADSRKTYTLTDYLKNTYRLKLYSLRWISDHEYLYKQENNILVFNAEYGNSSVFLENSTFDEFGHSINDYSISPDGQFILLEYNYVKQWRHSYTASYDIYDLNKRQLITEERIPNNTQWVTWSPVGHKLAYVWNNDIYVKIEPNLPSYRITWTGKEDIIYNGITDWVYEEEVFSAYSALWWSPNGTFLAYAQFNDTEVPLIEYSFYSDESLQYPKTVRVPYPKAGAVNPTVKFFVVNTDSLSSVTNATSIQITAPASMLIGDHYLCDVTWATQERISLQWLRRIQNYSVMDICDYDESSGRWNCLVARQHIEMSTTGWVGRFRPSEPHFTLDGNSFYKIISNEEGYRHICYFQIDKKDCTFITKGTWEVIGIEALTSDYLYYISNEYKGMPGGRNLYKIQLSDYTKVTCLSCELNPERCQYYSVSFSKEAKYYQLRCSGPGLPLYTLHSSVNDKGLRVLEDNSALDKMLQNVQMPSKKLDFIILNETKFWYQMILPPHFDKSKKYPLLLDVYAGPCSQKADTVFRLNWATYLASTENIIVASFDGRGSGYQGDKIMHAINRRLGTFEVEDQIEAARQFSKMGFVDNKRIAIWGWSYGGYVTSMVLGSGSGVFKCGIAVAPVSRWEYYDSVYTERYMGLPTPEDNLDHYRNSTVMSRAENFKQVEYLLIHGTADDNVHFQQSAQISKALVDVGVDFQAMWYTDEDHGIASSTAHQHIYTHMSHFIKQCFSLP"}, "source": "patent US8338450B2", "about": "“Compounds as dipeptidyl peptidase IV (DPP IV) inhibitors” (Lupin Limited, priority 2007, dated 2012)", "biological_target": "human recombinant DPP-IV (Homo sapiens, UniProt P27487)", "test": "Inhibition of human recombinant DPP-IV (Gly-Pro-AMC hydrolysis, fluorometric)", "format": "biochemical", "settings": "50 μM Gly-Pro-AMC, 30 min at 30° C., tested form: trifluoroacetic acid salt", "method": "Inhibition of Human Recombinant DPP-IV\nThe proteolytic activity of human recombinant DPP-IV was determined by following the hydrolysis of Gly-Pro-7-amino-4-methylcoumarin (Gly-Pro-AMC) and the fluorometric quantitation of the liberated AMC. Assays were routinely carried out in 96-well flat-bottom black microwell plates. The reaction mixture (100 μl) contained 10 ng of human recombinant DPP-IV enzyme (produced in-house or procured from R&D Systems, USA) in the assay buffer (25 mM Tris-HCl, pH 7.4, 140 mM NaCl, 10 mM KCl and 0.1 mg/ml BSA) and 50 μM Gly-Pro-AMC. After incubation of assay plates at 30° C. for 30 min, the hydrolysis of Gly-Pro-AMC was monitored in a fluorescence microplate reader (Molecular Devices SpectraMax M5), with excitation and emission wavelengths set at 360 nm and 460 nm, respectively.\nThe inhibition of DPP-IV activity by test compounds was routinely performed by preincubating the enzyme with test compound (10 and 100 nM for primary screening and 8 concentrations from 0.1 to 1000 nM for the dose-response study) or vehicle (0.01% DMSO) for 15 min at 30° C., in a total volume of 90 μl. Test compounds were dissolved in DMSO at a concentration of 10 mM and serially diluted further in assay buffer. […]\nThe results are expressed as percent inhibition of the enzyme activity relative to vehicle controls. […]"}
{"smiles": "N#C[C@@H]1CCCN1C(=O)C(N)C1CC2CCCC(C1)N2C(=O)c1ccc(C(F)(F)F)cc1", "note": "(stereo partly shown)", "values": [{"measurement": "IC50", "value": 5.34, "unit": "nM"}]}
